The entries are a selection whose mix differs from that of the whole data set. Activity calls are given as the source filed them. Rule as the data show it: active = inhibition mostly above about 36% (no sharp cut-off); inactive = mostly below about 34%.
Test: inhibition of NOD1-driven NF-kB reporter – cell-based, luminescence, uHTS, primary screen (AID 1578);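 also: HEK-293T reporter cells stimulated with the NOD1 agonist gamma-tri-DAP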
Details: NOD1-driven NF-kB luciferase reporter cells, at 4 µM, hits give high values
In the case of `O=c1c2cc([N+](=O)[O-])ccc2[nH]c2c([N+](=O)[O-])cc([N+](=O)[O-])cc12`, the inhibition is reported as active: 73.4%. For `O=[N+]([O-])c1ccc(O)c(/C=N/Nc2ccc([N+](=O)[O-])cc2[N+](=O)[O-])c1`, the inhibition was active: 99.1%. With `C[N+]1=C2C=CC=CC=C2SC12C([N+](=O)[O-])=CC([N+](=O)[O-])=C[C-]2[N+](=O)[O-]` (stereo not drawn) the inhibition was active: 95.5%.

Reference: PubChem BioAssay AID1578 (Sanford-Burnham Center for Chemical Genomics, 2009)
